Test results published in patent US12398179B2, “Nanomolar peptides and derivatives to differentially modulate ephrin receptors” (Sanford Burnham Prebys Medical Discovery Institute, priority 2019, dated 2025).
“Also recorded” adds a separate entry of the source.

By UniProt entry, the sequences of proteins in these tests, tags left out. Residues count along the entry.
UniProt P29317, 24-537 limits assumed, species assumed: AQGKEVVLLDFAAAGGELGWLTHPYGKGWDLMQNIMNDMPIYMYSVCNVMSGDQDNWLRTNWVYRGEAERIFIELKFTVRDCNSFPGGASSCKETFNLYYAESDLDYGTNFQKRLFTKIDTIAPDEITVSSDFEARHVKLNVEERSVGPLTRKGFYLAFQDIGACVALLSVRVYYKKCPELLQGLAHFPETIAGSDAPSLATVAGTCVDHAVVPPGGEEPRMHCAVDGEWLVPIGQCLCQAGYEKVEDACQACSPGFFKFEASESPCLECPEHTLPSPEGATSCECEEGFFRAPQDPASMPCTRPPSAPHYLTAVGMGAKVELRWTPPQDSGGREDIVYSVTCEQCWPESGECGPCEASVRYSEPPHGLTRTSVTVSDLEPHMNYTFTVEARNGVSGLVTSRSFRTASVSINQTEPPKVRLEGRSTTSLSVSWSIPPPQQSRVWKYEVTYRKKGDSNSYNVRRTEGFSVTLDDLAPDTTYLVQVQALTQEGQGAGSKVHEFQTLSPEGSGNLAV
UniProt P29317, 28-200: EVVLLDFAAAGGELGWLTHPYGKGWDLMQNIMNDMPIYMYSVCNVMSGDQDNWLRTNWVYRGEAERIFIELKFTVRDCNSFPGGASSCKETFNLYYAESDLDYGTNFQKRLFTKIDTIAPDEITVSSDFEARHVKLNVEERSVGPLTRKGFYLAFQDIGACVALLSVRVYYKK

Key:
EphA2 = EphA2 (Homo sapiens, UniProt P29317); experiment: ELISA: inhibition of ephrin-A5 AP binding to immobilized EphA2 Fc; design: the immobilized EphA2 extracellular domain fused to the Fc portion of an antibody (EphA2 Fc); conditions: for fold higher potency in ELISA: amidated peptide compared with the peptide with unmodified C-terminus; for inhibitory potency in ELISAs (in words): ephrin-A5-EphA2 binding
Protocol: (FIG. 2A) Representative ELISAs comparing the ability of the peptides to inhibit binding of ephrin-A5 fused to alkaline phosphatase (ephrin-A5 AP) to the immobilized EphA2 extracellular domain fused to the Fc portion of an antibody (EphA2 Fc). The graphs show averages±SE from triplicate measurements from a representative experiment. IC50 values calculated from the fitted curves in each experiment are shown. All concentrations are nM and the 100 nM peptide concentration is outlined in red. (FIG. 2B) Ephrin-A5 AP binding to the indicated EphA receptors and ephrin-B2 AP binding to the indicated EphB receptors in the presence of the indicated peptide, normalized to ephrin binding without peptide. The bars show averages±SE from triplicate measurements.

EphA2 LBD = target: T1, EphA2 LBD (Homo sapiens, UniProt P29317); experiment: Isothermal titration calorimetry (ITC) of peptide binding
T1 construct: EphA2 LBD (residues 28-200); made in house; host or cells: E. coli Origami 2 (DE3)
Protocol: For ITC, all peptides were dissolved in DMSO and both the EphA2 LBD and the peptides were diluted to obtain a final buffer containing 9.5 mM HEPES, pH 7.9, 95 mM NaCl, and 5% DMSO. […] Two-microliter aliquots of a peptide solution were injected into the cell containing 205 μL EphA2 LBD. 200-400 μM peptides were titrated into 20-40 μM EphA2 LBD. Experimental data were analyzed using the Origin software package (Microcal). The integrated values for the reaction heats were normalized to the amount of injected peptide after blank subtraction.

[1] = Peptide solubility in PBS/H2O

CSCC[C@H](NC(=O)[C@@H]1CCCN1C(=O)[C@@H](NC(=O)[C@H](CO)NC(=O)[C@H](CC(=O)O)NC(=O)[C@@H]1CCCN1C(=O)[C@H](Cc1ccc(O)cc1)NC(=O)[C@H](C)NC(=O)[C@H](CC(C)C)NC(=O)[C@H](Cc1c[nH]c2ccccc12)NC(=O)CCN)C(C)C)C(N)=O [βA-WLAam]
fold increased potency in ELISA (EphA2; compared with WLAam): ~2 fold

CC(C)C[C@H](NC(=O)[C@H](Cc1c[nH]c2ccccc12)NC(=O)CCN)C(=O)N[C@@H](C)C(=O)N[C@@H](Cc1ccc(O)cc1)C(=O)N1CCC[C@H]1C(=O)N[C@@H](CC(=O)O)C(=O)N[C@@H](CO)C(=O)N[C@H](C(=O)N1CCC[C@H]1C(=O)N[C@@H](Cc1ccc(O)cc1)C(N)=O)C(C)C [βA-WLA-Yam]
fold improved potency in ELISA (EphA2; compared with βA-WLAam): ~2 fold

CC(C)C[C@H](NC(=O)[C@H](Cc1c[nH]c2ccccc12)NC(=O)CCN)C(=O)N[C@@H](C)C(=O)N[C@@H](Cc1ccc(O)cc1)C(=O)N1CCC[C@H]1C(=O)N[C@@H](CC(=O)O)C(=O)N[C@@H](CO)C(=O)N[C@H](C(=O)N1CCC[C@H]1C(=O)N[C@@H](Cc1ccc(O)cc1)C(=O)N[C@@H](CCCNC(=N)N)C(=O)N1CCC[C@H]1C(=O)N[C@@H](CCCCN)C(N)=O)C(C)C [βA-WLA-YRPKam]
fold higher potency in ELISA (EphA2): ~2 fold
N (binding stoichiometry) (EphA2 LBD): 0.96 ± 0.19
TΔS (EphA2 LBD): 21.25 ± 0.16 kcal/mol
ΔG (change in Gibbs energy) (EphA2 LBD): −9.40 ± 0.01
ΔH (EphA2 LBD): -30.65 ± 0.17 kcal/mol

CC(C)C[C@H](NC(=O)[C@H](Cc1c[nH]c2ccccc12)NC(=O)CCN)C(=O)N[C@@H](C)C(=O)N[C@@H](Cc1ccc(O)cc1)C(=O)N1CCC[C@H]1C(=O)N[C@@H](CC(=O)O)C(=O)N[C@@H](CO)C(=O)N[C@H](C(=O)N1CCC[C@H]1C(=O)N[C@@H](Cc1ccc(O)cc1)C(=O)N[C@@H](CCCNC(=N)N)C(=O)O)C(C)C [βA-WLA-YR]
solubility in aqueous solutions (in words) [1]: improved peptide solubility in aqueous solutions

CSCC[C@H](NC(=O)[C@@H]1CCCN1C(=O)[C@@H](NC(=O)[C@H](CO)NC(=O)[C@H](CC(=O)O)NC(=O)[C@@H]1CCCN1C(=O)[C@H](Cc1ccc(O)cc1)NC(=O)[C@H](C)NC(=O)[C@H](CO)NC(=O)[C@@H](N)Cc1ccc(O)cc1)C(C)C)C(N)=O [YSA1-10am]
inhibitory potency in ELISAs (in words) (EphA2): as potent as YSA

CC(C)C[C@H](NC(=O)[C@H](Cc1c[nH]c2ccccc12)NC(=O)CCN)C(=O)N[C@@H](C)C(=O)N[C@@H](Cc1ccc(O)cc1)C(=O)N1CCC[C@H]1C(=O)N[C@@H](CC(=O)O)C(=O)N[C@@H](CO)C(=O)N[C@H](C(=O)N1CCC[C@H]1C(=O)N[C@@H](Cc1ccc(O)cc1)C(=O)N[C@@H](CO)C(=O)N1CCC[C@H]1C(=O)N[C@@H](CCCCNC(=O)CCCC[C@@H]1SC[C@@H]2NC(=O)N[C@@H]21)C(=O)O)C(C)C [βA-WLA-YSPK-bio]
solubility in aqueous solutions (in words) [1]: not being soluble in aqueous solutions
inhibitory potency in ELISAs (in words) (EphA2): only slightly decreased potency; also recorded: essentially unaffected

CC(C)C[C@H](NC(=O)[C@H](Cc1c[nH]c2ccccc12)NC(=O)CCN)C(=O)N[C@@H](C)C(=O)N[C@@H](Cc1ccc(O)cc1)C(=O)N1CCC[C@H]1C(=O)N[C@@H](CC(=O)O)C(=O)N[C@@H](CO)C(=O)N[C@H](C(=O)N1CCC[C@H]1C(=O)N[C@@H](Cc1ccc(O)cc1)C(=O)N[C@@H](CCCNC(=N)N)C(=O)N1CCC[C@H]1C(=O)N[C@@H](CCCCNC(=O)CCCC[C@@H]1SC[C@@H]2NC(=O)N[C@@H]21)C(N)=O)C(C)C [βA-WLA-YRPKam-bio]
fold higher potency in ELISA (EphA2): ~2 fold

CSCC[C@H](NC(=O)[C@@H]1CCCN1C(=O)[C@@H](NC(=O)[C@H](CO)NC(=O)[C@H](CC(=O)O)NC(=O)[C@@H]1CCCN1C(=O)[C@H](Cc1ccc(O)cc1)NC(=O)[C@H](C)NC(=O)[C@H](CC(C)C)NC(=O)[C@@H](N)Cc1c[nH]c2ccccc12)C(C)C)C(N)=O [WLAam]
fold improved potency in ELISA (EphA2; compared with YSA1-10 am): ~2 fold
